Values of other authors in PMC4263031 (Bioconjugate chemistry, 2012).

Protein sequences, listed by entry. Tags and fused reporters are not part of them. Lines headed by an entry give the natural chain unless they say otherwise; changes in a name come on top.
UniProt P30680: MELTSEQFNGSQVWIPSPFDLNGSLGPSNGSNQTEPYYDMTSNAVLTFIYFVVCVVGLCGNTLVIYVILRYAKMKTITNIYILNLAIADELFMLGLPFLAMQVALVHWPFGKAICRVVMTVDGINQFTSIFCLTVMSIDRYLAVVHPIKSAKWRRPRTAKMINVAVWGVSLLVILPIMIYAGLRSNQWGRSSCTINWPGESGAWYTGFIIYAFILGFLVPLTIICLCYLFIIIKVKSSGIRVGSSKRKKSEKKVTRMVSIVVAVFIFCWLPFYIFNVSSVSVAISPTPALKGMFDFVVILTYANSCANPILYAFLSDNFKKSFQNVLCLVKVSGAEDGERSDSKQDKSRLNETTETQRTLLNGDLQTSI

Target: SSTr2 (Rattus norvegicus, UniProt P30680)
Conditions: AR42J membranes

Question: With “^64Cu-CB-TE2A-Y3-TATE: 64Cu-labeled CB-TE2A chelator conjugated to somatostatin analogue Y3-TATE; previously published comparator” as the substance, how does the Kd read?
Answer: Its Kd is 1.7 nM.
